# AlphaSeq binding of Ab-14 light chain variants to a spike HR2 peptide

Reference: Engelhart et al. 2022, doi:10.1038/s41597-022-01779-4. File: FLAb, binding data.

Target: peptide PDVDLGDISGINAS, taken from heptad repeat 2 (HR2) of SARS-CoV-2 spike.

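The parent was found by panning a naive human phage display library on the peptide. The library (AAYL50) carries one to three amino acid substitutions per variant, with no insertions or deletions. The assay is AlphaSeq: two haploid yeast populations carry antibody and antigen on their surface. After mating in shaken culture at 30 °C for 16 h, diploids were selected and their barcode pairs sequenced. The ratio of observed to expected reads was calibrated, replicate by replicate, on BCL2-family standards whose Kd was known from biolayer interferometry. Each pool was mated in three replicate cultures.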

The variants keep the heavy chain, the linker and the frameworks of Ab-14 (scFv order VH, the linker GGGGSGGGGSGGGGS, VL).
VH: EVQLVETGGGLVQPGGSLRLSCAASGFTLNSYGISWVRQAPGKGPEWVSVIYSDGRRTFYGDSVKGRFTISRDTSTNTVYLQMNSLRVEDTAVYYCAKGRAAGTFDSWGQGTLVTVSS
VL: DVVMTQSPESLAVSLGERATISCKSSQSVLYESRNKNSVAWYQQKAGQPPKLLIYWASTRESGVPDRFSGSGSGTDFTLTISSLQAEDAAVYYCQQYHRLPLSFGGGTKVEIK

Variants are written as CDR1, CDR2 and CDR3 of the light chain (limits as in the source). Parent: KSSQSVLYESRNKNSVA, WASTRES, QQYHRLPLS.
The read-out is the apparent dissociation constant on a log10 scale (nM): the lower, the stronger.
A mean of the replicates is given; it leaves out those without a signal.
A pair that was not seen in that replicate is written "nd"; this usually means weak binding, but a binder can also be missed.
Background: pairings of library AAYL50 with three empty control strains gave a value in 18% of cases (median 4.19, 5th percentile 2.99). Values in that range, when seen in few replicates, are hard to tell from nonspecific mating. For each scFv, signals with the empty controls are counted beside the result.
For reference, the parent read 0.65 as the reference entry and 1.68 as a member of this library.

The variant KSSQSVLYESRNPNSVA, WASTRES, QQYQGLPLS showed 1.02, 1.32, 1.22 (mean 1.19; controls 1 of 9).
The variant KSSQSSLYESRNKNSVA, WAKTREM, QQYHRLPLS showed 1.41, 1.70, 1.47 (mean 1.53; controls 0 of 9).
The variant KSPQSVCYESRNKNSVA, WASTRES, QQYHRLPLS showed 1.01, 1.14, 0.93 (mean 1.03; controls 6 of 9).
The variant KSIQSVPYESRNKNSVA, WVSTRES, QQYHRLPLS showed 3.97, 3.55, nd (mean 3.76; controls 1 of 9).
The variant KSSQSVLYESRNKYSVA, WANTRES, QQYHRLPLS showed nd, 4.79, nd (controls 2 of 9).
The variant KSSQSVGRESRNKNSVA, WASTRES, QQYHREPLS showed 1.79, 1.34, 1.58 (mean 1.57; controls 3 of 9).
The variant YSSQSVLYESRNKNSVA, WASTRES, MQYHRLPLY showed nd, nd, 3.62 (controls 6 of 9).
The variant KSSQSVLCESRNKNSVA, WAFKRES, QQYHRLPLS showed 5.01, nd, nd (controls 4 of 9).
The variant KSPQSLLYESRNKNSGA, WASTRES, QQYHRLPLS showed 1.26, 1.61, 1.85 (mean 1.57; controls 1 of 9).
The variant KSSQSVQYFKRNKNSVA, WASTRES, QQYHRLPLS showed 3.06, 3.09, 3.21 (mean 3.12; controls 1 of 9).
The variant KSEQSVLYMSRNKNSVA, WASTRES, QQYHRLPLS showed 2.18, 1.70, 1.88 (mean 1.92; controls 1 of 9).
The variant KSSQHVLYESRNKNSVA, WASTRAS, QQYDRLPLS showed 0.50, 0.74, 0.64 (mean 0.63; controls 6 of 9).
The variant KRSQSVLYESRNKCSVA, WASTRES, QQYHRLPLR showed nd, nd, nd (controls 2 of 9).
The variant KASQSVLYESRNKNSVA, WASQRES, QQSHRLPLS showed 0.61, 0.79, 0.72 (mean 0.70; controls 3 of 9).
The variant KSSQSVLYESRNRNSVA, WASTREN, QQYHRLPLS showed nd, nd, nd (controls 1 of 9).
The variant KSSQSVLYESRNKNSVE, WASIREL, QQYHRLPLS showed nd, nd, nd (controls 3 of 9).
The variant KSNQSVLYESRWKISVA, WASTRES, QQYHRLPLS showed nd, nd, nd (controls 0 of 9).
The variant FSSQSNLYESRNKNSVA, WASTRES, QQYHRLPDS showed 2.22, 1.96, 1.98 (mean 2.05; controls 3 of 9).
The variant KLSQSVLEESRNKNSVA, WASTREF, QQYHRLPLS showed -0.09, 0.21, 0.01 (mean 0.04; controls 3 of 9).
The variant KSSQSVLYESRNKTSVA, WASTRVS, QQYHRLPLS showed 1.42, 1.47, 1.49 (mean 1.46; controls 8 of 9).
The variant KSSQSVLRESRNKNGVH, WASTRES, QQYHRLPLS showed 4.38, 3.98, 4.16 (mean 4.17; controls 0 of 9).
The variant KSMQSVLYESRNKVSVA, WASTRES, QQGHRLPLS showed 4.05, 4.80, 4.07 (mean 4.31; controls 4 of 9).
The variant KSSQSVLYESDNKNSVA, WASERAS, QQYHRLPLS showed 1.07, 1.25, 1.33 (mean 1.22; controls 1 of 9).
The variant KSSQSVLYCSRNKNSVA, WASTLRS, QQYHRLPLS showed 3.34, nd, nd (controls 1 of 9).
The variant KSQQSVLYESRNKDSVA, WGSTRES, QQYHRLPLS showed 1.56, 1.60, 1.59 (mean 1.58; controls 1 of 9).
The variant KSSQSVLYESRNKESVA, CASWRES, QQYHRLPLS showed 4.41, 3.29, 3.11 (mean 3.60; controls 1 of 9).
The variant KSSQSVLYESRNKNSVK, WASTRES, QQYHRVPLS showed nd, nd, nd (controls 4 of 9).
The variant KSSQSVLYESRNKMSVA, WASTRES, QQSHRLPLS showed nd, 2.95, nd (controls 0 of 9).
The variant KSSQSVLYESRNKWSVA, WASTRES, QQYHRLLGS showed 4.41, nd, nd (controls 4 of 9).
The variant YSSQSCLHESRNKNSVA, WASTRES, QQYHRLPLS showed 1.48, 1.48, 1.58 (mean 1.51; controls 1 of 9).
The variant KSSQPVLYESRNKNSSA, WASTREH, QQYHRLPLS showed nd, nd, nd (controls 1 of 9).
The variant KSSQRVLYESRNKSSVI, WASTRES, QQYHRLPLS showed 3.10, nd, 3.79 (mean 3.45; controls 1 of 9).
The variant KSTQSVLYESRNKNSVA, WASTRES, QQDHALPLS showed 4.12, 4.56, nd (mean 4.34; controls 5 of 9).
The variant MSSQSVLGESRNKNSPA, WASTRES, QQYHRLPLS showed nd, nd, nd (controls 0 of 9).
The variant VSSQSVLYESRNKWSVA, WASTRES, QQYHRLPLS showed 1.72, 1.42, 1.45 (mean 1.53; controls 2 of 9).
The variant KSSQSVYYESRNKNSVA, WASTRES, QKYHRLPFS showed nd, nd, nd (controls 0 of 9).
The variant KSSQSVLYESRNKNSSA, WASWRES, QQYHRLPFS showed nd, nd, nd (controls 2 of 9).
The variant KSSQSVLYVWRNKNSVA, WASTRWS, QQYHRLPLS showed nd, 3.55, nd (controls 2 of 9).
The variant QSSQSVLYESRNKNSVA, WEHTRES, QQYHRLPLS showed nd, nd, 2.95 (controls 0 of 9).
The variant KSSQSVLYLSRMKNSVA, WASTRES, LQYHRLPLS showed 3.81, 2.52, 3.16 (mean 3.16; controls 3 of 9).
The variant KSSQLVLYESRNKNSVA, WASDRES, QQYHRLPLS showed nd, 3.98, nd (controls 3 of 9).
The variant KSSQSWLYEYRNKNSYA, WASTRES, QQYHRLPLS showed 5.10, 5.32, 5.56 (mean 5.33; controls 6 of 9).
The variant KSSQSVLYESRNKNSVA, WAFTREG, WQYHRLPLS showed nd, nd, nd (controls 0 of 9).
The variant KSSQSVRYESRNKNSVI, WASTRES, QQYARLPLS showed nd, nd, nd (controls 1 of 9).

Repeated from above, the 3 best binders with a signal in all replicates:

With KLSQSVLEESRNKNSVA, WASTREF, QQYHRLPLS the result was -0.09, 0.21, 0.01 (mean 0.04; controls 3 of 9).
With KSSQHVLYESRNKNSVA, WASTRAS, QQYDRLPLS the result was 0.50, 0.74, 0.64 (mean 0.63; controls 6 of 9).
With KASQSVLYESRNKNSVA, WASQRES, QQSHRLPLS the result was 0.61, 0.79, 0.72 (mean 0.70; controls 3 of 9).